# Assay results published in BindingDB's records for doi:10.1021/jm0201924 (Senju Pharmaceutical, 2003).
# Chains of the proteins cited; added tags and fusions are not shown.
# UniProt P05177, whole entry: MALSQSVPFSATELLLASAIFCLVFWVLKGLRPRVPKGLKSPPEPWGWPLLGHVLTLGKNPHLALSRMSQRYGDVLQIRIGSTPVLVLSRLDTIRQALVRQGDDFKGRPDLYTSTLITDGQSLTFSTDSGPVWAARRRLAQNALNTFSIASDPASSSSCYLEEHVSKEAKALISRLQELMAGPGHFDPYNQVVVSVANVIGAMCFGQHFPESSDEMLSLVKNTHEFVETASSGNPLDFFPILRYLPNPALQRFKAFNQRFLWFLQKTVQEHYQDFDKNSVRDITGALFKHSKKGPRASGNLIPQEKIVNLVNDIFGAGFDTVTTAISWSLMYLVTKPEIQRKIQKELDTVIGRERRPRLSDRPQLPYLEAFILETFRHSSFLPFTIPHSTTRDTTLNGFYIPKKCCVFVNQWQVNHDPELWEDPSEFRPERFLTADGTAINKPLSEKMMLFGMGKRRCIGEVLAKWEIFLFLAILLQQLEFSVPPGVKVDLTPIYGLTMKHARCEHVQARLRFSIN
# Molecular target: Cytochrome P450 1A2 (Homo sapiens, UniProt P05177)
# Experiment: Inhibition of Cytochrome P450 1A2
structure (smiles),measurement,value
CC(C)C[C@H](C=O)NC(=O)[C@@H](NS(=O)(=O)c1ccc(F)cc1)C(C)C [2-(4-Fluoro-benzenesulfonylamino)-N-(1-formyl-3-methyl-butyl)-3-methyl-butyramide],IC50,> 1 mM
